These results are taken from US8937088B2, “Ureas for the treatment and prevention of cancer” (Astar Biotech LLC, priority 2011, dated 2015).

The subject of this experiment is HUH7 (human hepatoma cell line). Briefly: Cell death detection, trypan blue exclusion assay, HUH7. Particulars: HUH7, 7-day treatment, 2.5 uM. In kind it is cell-based. As for the experimental part:
Biological Test 2. Cell Death Detection Using Trypan Blue Exclusion Assay.
After drug treatment, cells were harvested by trypsinization with trypsin/EDTA for 10 min at 37° C. As some apoptotic cells detached from the culture substratum into the medium, these cells were also collected by centrifugation of the medium at 1,200 rpm for 5 min. The pooled cell pellets were resuspended and mixed with trypan blue dye. After Trypan blue stain was done, cells were counted by using a light microscope and a hemocytometer. Blue dye-incorporating cells were scored as being dead. Five hundred cells from randomly chosen fields were counted, and the number of dead cells was counted and expressed as a percentage of the total number of cells counted as shown in Tables 2 to 8 below.

Turning to `CNC(=O)c1cc(Oc2ccc(NC(=O)Nc3ccc(Cl)c(C(F)(F)F)c3)cc2)ccn1` [Sorafenib, reference compound], the “Cell Death (%) at Tested Concentration” value was determined as 2.1%.
